Experiment: Toxicity in C57BL/6 mouse model assessed as conditioned place aversion at 30 mg/kg, IP
Details: in vivo

SMILES: CN(C(=O)Cc1ccc(Cl)c(Cl)c1)C1CCCCC1N1CCCC1.CS(=O)(=O)O (stereo unspecified)
- Activity: Toxic

— ChEMBL document CHEMBL5030540 (J Med Chem, 2021)
